Test system: TFG-MET allograft tumors
Experiment: TFG-MET allograft preclinical trial in CD1 mice, Survival cohort (survival, BLI, body weight)
Format: in vivo, mouse
Settings: Murine allografts

## C[C@@H](Oc1cc(-c2cnn(C3CCNCC3)c2)cnc1N)c1c(Cl)ccc(F)c1Cl [Crizotinib]
Day 28, drug + RT
  BLI signal, individual mice: 1.20E+05
Day 49, drug + RT
  BLI signal, individual mice: 1.10E+05
Day 63, drug + RT
  BLI signal, individual mice: 1.20E+05
Day 77, drug alone
  BLI signal, individual mice: 1.12E+05
Day 84, drug alone
  BLI signal, individual mice: 1.19E+05
Day 91, drug + RT
  BLI signal, individual mice: 1.13E+05
